# Apparent affinities of Ab-14 variants for a coronavirus HR2 peptide

Data: MIT Lincoln Laboratory AlphaSeq set, Engelhart et al. 2022, doi:10.1038/s41597-022-01779-4, as distributed in FLAb.

Target peptide (SARS-CoV-2 spike, HR2 region): PDVDLGDISGINAS

Parent scFv Ab-14: VH joined to VL by a (GGGGS)3 linker. Changes lie in the light chain CDRs alone.
VH: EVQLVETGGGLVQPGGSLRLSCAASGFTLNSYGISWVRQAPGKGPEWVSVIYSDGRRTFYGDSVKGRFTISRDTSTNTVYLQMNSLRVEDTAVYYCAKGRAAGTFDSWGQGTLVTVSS
VL: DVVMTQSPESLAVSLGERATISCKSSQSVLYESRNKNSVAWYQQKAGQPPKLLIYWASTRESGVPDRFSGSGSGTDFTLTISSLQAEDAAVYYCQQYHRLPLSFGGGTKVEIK

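Phage display of a naive human antibody library on the peptide gave the parent. Library AAYL50 holds single substitutions and randomly drawn double and triple substitutions in the CDRs. The assay is AlphaSeq: two haploid yeast populations carry antibody and antigen on their surface. The frequency of each diploid, read from paired DNA barcodes, reflects how well the two displayed proteins bind. The ratio of observed to expected reads was calibrated, replicate by replicate, on BCL2-family standards whose Kd was known from biolayer interferometry. Each pool was mated in three replicate cultures.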

Each variant is given by its three light chain CDRs, as the data file delimits them; those of the parent are KSSQSVLYESRNKNSVA, WASTRES, QQYHRLPLS. Numbers give log10(Kd / nM), so 0 is 1 nM and 3 is 1 µM. Smaller is tighter. Averages over replicates are reported, and they cover detected replicates only. An entry "nd" has no value in the source: the pair was not observed among the diploids in any replicate. This suggests poor binding but is not conclusive.

CDR-L1	CDR-L2	CDR-L3	log10 Kd (nM), mean	replicates with signal	signal with controls
KSSDSVTYSSRNKNSVA	WASTRES	QQYHRLPLS	1.04	3 of 3	6 of 9
KSSQSVLGESRNKNSVA	WAFTRES	QQYHTLPLS	1.82	3 of 3	1 of 9
KSSQSVKYESRNKNSVA	WASTNES	QQYHRLQLS	nd	0 of 3	2 of 9
KSSQCVLYESRNKNSVA	QASTDES	QQYHRLPLS	4.06	1 of 3	1 of 9
KSSQSVLYESRLKNSPA	WASTRES	QQYHRLPLA	nd	0 of 3	0 of 9
KSSQSSLYESRNKNSVA	WASTRES	QQYHRFPHS	nd	0 of 3	0 of 9
KSSQSVLYEERNKNSVM	WASTRES	QQYHRLPRS	nd	0 of 3	2 of 9
KSSQCVLYESANKNSVA	WASTRES	QAYHRLPLS	1.53	3 of 3	4 of 9
KSSQSVPYESRNKNSVA	WASTGES	QQQHRLPLS	3.71	1 of 3	2 of 9
KSQQSVLYESRNKNSVN	WASTRES	QQYHRGPLS	4.70	1 of 3	3 of 9
KSRQSVLYESRNKASVA	WASTKES	QQYHRLPLS	3.27	2 of 3	1 of 9
KWSQSVLYESRNKNSVA	WASARES	KQYHRLPLS	5.03	1 of 3	2 of 9
KFSQSRLYESRNKNSVA	WASTRES	QQYHRLPLS	0.43	3 of 3	0 of 9
KSSQSVLYESQNKNSVA	EASTRES	QQRHRLPLS	4.74	1 of 3	3 of 9
KSSQSVLYESRNKKSVA	AASTRES	QQYHRHPLS	0.74	3 of 3	4 of 9
KKSLSVLYESRNKNSVA	WASTRES	QQKHRLPLS	4.54	2 of 3	6 of 9
KSSQSVLYESRNKNSVA	WASTRES	CMYHRLPLS	4.31	1 of 3	3 of 9
KSSQSVLYESRNKNSVV	WDSTRES	QQYHRLFLS	nd	0 of 3	0 of 9
KSFQGVLYESRNKNSVA	WASTRES	QVYHRLPLS	4.44	3 of 3	5 of 9
KSSQLVLYESRNKNSVA	WASTRMS	QQYHRLPLI	2.10	3 of 3	0 of 9
KSSQSVLYESRNKNSVA	WAQTRES	QQIHDLPLS	1.02	3 of 3	4 of 9
KSSQSVHYEWRNKNSNA	WASTRES	QQYHRLPLS	nd	0 of 3	2 of 9
KSSQSVLYESRNKNHVA	WASTRES	QQYHRLPQS	5.28	1 of 3	0 of 9
KSSQQVLYESRNKNSLA	WASTRES	QQYHREPLS	1.73	3 of 3	0 of 9
KSSQSVIYESRNKNSVA	WASTRES	QQYHRLVSS	nd	0 of 3	0 of 9
KSSQSVLYESRNKNWVA	WASDRES	QQYHRLDLS	2.86	3 of 3	3 of 9
KSSQSVLYESRNKNNVA	WASTRES	QQYHNWPLS	nd	0 of 3	3 of 9
KSSPSVLYESRNKNSNA	WASTRES	QQYHRLPLK	nd	0 of 3	2 of 9
KSSQSVLYESRNVSSVA	WASTRES	QQQHRLPLS	2.14	3 of 3	0 of 9
KTSQSVLYVSRNKNSNA	WASTRES	QQYHRLPLS	nd	0 of 3	1 of 9
KSSQSVLYESRNNNSVA	WASTQES	QTYHRLPLS	4.19	1 of 3	0 of 9
KSSQSVLYESRFKNSVA	WADTRES	QQYIRLPLS	nd	0 of 3	1 of 9
KSSQSLGYESRNKNSVA	WAVTRES	QQYHRLPLS	nd	0 of 3	0 of 9
KSSQSVLYDSRNKNSVA	WESTRES	EQYHRLPLS	1.68	3 of 3	3 of 9
KSSQSVLYESRNKNGVY	WASARES	QQYHRLPLS	3.33	1 of 3	1 of 9
WSSQSVLYGSRNKYSVA	WASTRES	QQYHRLPLS	nd	0 of 3	0 of 9
KSSQSVLYESRNKNSVA	CASTRES	QQQHRLPLS	nd	0 of 3	0 of 9
KSSQSVRYESRNKNSVS	WASTREV	QQYHRLPLS	nd	0 of 3	1 of 9
KSSTSVLYESRNKNSVA	WASTRES	QNYHRLPLS	nd	0 of 3	0 of 9
KSSQSVLYESCRKNSVA	WASTRES	QQYHRLNLS	3.46	1 of 3	1 of 9
CSSQYVLYESRNANSVA	WASTRES	QQYHRLPLS	2.39	1 of 3	0 of 9
KKSQSVLYESRNCNSVA	WASTRES	QQYHRLKLS	nd	0 of 3	1 of 9
KSSQSVLHESCNKNSVA	WASPRES	QQYHRLPLS	nd	0 of 3	0 of 9
KSSQSCLLESRNKNSVA	WASTRES	QQYYRLPLS	0.80	3 of 3	1 of 9
KQSQSVVYESRNKNSVA	WASTRES	QQYHGLPLS	0.47	3 of 3	0 of 9
KSYQWVLYESRNKNSVA	WASTRES	QQYHRLPNS	nd	0 of 3	3 of 9
KSSQSVLYESFNKNSVA	WASTRES	QQYVRPPLS	0.56	3 of 3	2 of 9
KSSQSVLYCPRNKNSEA	WASTRES	QQYHRLPLS	nd	0 of 3	1 of 9
KSSQSMLIESGNKNSVA	WASTRES	QQYHRLPLS	0.67	3 of 3	2 of 9
KSSQSVLYGSRNLNSVA	WADTRES	QQYHRLPLS	0.60	3 of 3	0 of 9
KSSQSVLYESRNNNSVM	WASTRES	QQYYRLPLS	4.95	2 of 3	2 of 9

For reference, the parent read 0.65 as the reference entry and 1.68 as a member of this library. As a blank, each scFv also met three strains without target: over library AAYL50, 18% of these pairings were detected, typically at 4.19 and seldom below 2.99. The control count says in how many pairings with the empty strains this scFv gave a signal.